Ab-14 heavy chain CDR variants: yeast mating affinities

Binding partner: SARS-CoV-2 spike HR2 peptide, sequence PDVDLGDISGINAS.

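This is the validation round: designs drawn from the data on random variants, tested in the same kind of assay. Group labels follow the data file (Ctrl: baseline library sampled from a position-specific scoring matrix, with some repeated check sequences; Rand: our label for a block that the file lists under HC and that is probably the random mutants of the ten best first-round binders; En: ensemble of fine-tuned language models; GP: Gaussian process model; GPLM: also part of the Gaussian process libraries; HC: hill climbing; Gen: genetic algorithm; Gibbs: Gibbs sampling; a sequence that several methods proposed may carry one label only). In AlphaSeq, yeast of one mating type display the scFv and yeast of the other type display the target. Mating (16 h, 30 °C) was followed by selection of diploids and sequencing of their barcodes. Each replicate has its own calibration line, from reference interactions of the BCL2 family. Each pool was mated in six replicate cultures.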

Each scFv is VH, a (GGGGS)3 linker, VL, as in the parent Ab-14, and differs from it in the CDRs of the heavy chain only.
VH: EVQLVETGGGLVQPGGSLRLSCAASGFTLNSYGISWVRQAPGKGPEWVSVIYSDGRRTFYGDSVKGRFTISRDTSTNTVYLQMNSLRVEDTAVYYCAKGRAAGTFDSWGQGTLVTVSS
VL: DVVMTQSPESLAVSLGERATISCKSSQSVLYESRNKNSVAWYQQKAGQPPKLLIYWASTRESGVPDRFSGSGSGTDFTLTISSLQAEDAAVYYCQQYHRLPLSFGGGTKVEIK

Variants are written as CDR1, CDR2 and CDR3 of the heavy chain (limits as in the source). Parent: GFTLNSYGIS, VIYSDGRRTFYGDSVK, GRAAGTFDS.
Scale: log10 of Kd in nM, estimated from mating counts; low values are strong binders.
A mean of the replicates is given; it leaves out those without a signal.
A pair that was not seen in any replicate is written "not detected"; this usually means weak binding, but a binder can also be missed.
The list is sorted by this average, lowest first, undetected variants last.
Of ten entries with the parent sequence, four were seen in most replicates (averages 0.34 to 2.37), three in one and three in none, so single entries are noisy.
A sequence measured in both rounds can read differently, since the two assays cover different ranges.
The authors averaged sequences with at least three values out of six and counted those with two or fewer as poor binders.
As a blank, each scFv also met three strains without target: over all heavy chain designs, 1% of these pairings were detected, typically at 2.08 and seldom below 0.84. Also given: how often the same scFv was detected with the empty control strains.
A sequence that the file lists under several names has all its replicates pooled.

mean, log10 nM | seen in | signal with controls | CDR-H1 | CDR-H2 | CDR-H3 | group
-0.85 | 6/6 | 0/18 | GFDLDEYGIS | VIYADGRRTFYIDSVK | GNVAGTFDV | En_HC
-0.84 | 6/6 | 0/18 | GFDINEYGIS | VIYADGMRTFYADSVK | GQTAGTFDS | En_HC
-0.77 | 6/6 | 0/18 | GFDLDEYGIS | VIYADGVRTAYADSVK | GNEAGTFDL | En_Gen
-0.53 | 6/6 | 0/18 | GFDLNEYGIS | VIYADGKRTAYADSVK | GNVAGTFNV | En_Gen
-0.42 | 6/6 | 0/18 | GFDLNEYGIS | VIYADGMRTAYSDDVK | GEVAGTFDT | En_Gen
-0.30 | 12/12 | 0/36 | GFSLNEYGIS | VIYSDGRRTFYGDSVK | GRAAGTFDS | Ctrl+GPLM_Gen
-0.27 | 6/6 | 0/18 | GFDLNEYGIS | VIYADGLRTAYADDVK | GENAGTFDV | En_Gen
-0.26 | 6/6 | 0/18 | GFDLNEYGIS | VIYADGQRTAYADDVK | GENAGTFDL | En_Gen
-0.25 | 6/6 | 0/18 | GFDLDEYGIS | VIYADGQRTAYADSVK | GEVAGTFDQ | En_Gen
-0.24 | 6/6 | 0/18 | GFTLNEYGIS | VIYSDGRRTFYGDSVK | GRTAGTFWT | GP_Gibbs
-0.22 | 6/6 | 0/18 | GFDLNEYGIS | VIYADGRRTAYADSVK | GENAGTFDV | En_Gen
-0.10 | 6/6 | 0/18 | GFTLNEYGIS | VIYSDGRRTFYSDAVK | GRMAGTFDS | GP_HC
0.00 | 6/6 | 0/18 | GFHLNSYGIS | VIYSDGRRTFYGDSVK | GRAAGTFDS | Ctrl
0.02 | 6/6 | 0/18 | GFALNEYGIS | VIYSDGRRTFYGDSVK | GQTAGTFDS | GPLM_Gibbs
0.03 | 6/6 | 0/18 | GFDLDEYGIS | VIYADGVRTAYADSVK | GNTAGTFDL | En_Gen
0.04 | 6/6 | 0/18 | GFSLDEYGIS | VIYADGMRTFYADSVK | GNVAGTFDS | En_HC
0.08 | 2/6 | 0/18 | GFDLNEYGIS | VIYADGRRTFYADSVK | GQIAGTFDM | En_HC
0.09 | 6/6 | 2/18 | GFTLESYGIS | VIYSDGRRTFYADSVK | GTLAGTFDS | GP_HC
0.10 | 6/6 | 0/18 | GFDLNEYGIS | VIYADGRRTAYLDSVK | GEAAGTFDV | En_HC
0.17 | 6/6 | 0/18 | GFTLNSFGIS | VIYSDGRRTAYGDSVK | GRAAQTFDS | Ctrl
0.29 | 6/6 | 1/18 | GFTLNSYGIS | VIYSDGRRTFYADSVK | GRNAGTFDT | GPLM_Gen
0.31 | 6/6 | 0/18 | GFDLEDYGIS | VIYADGRRTQYADSVK | GEAAGTFDV | En_HC
0.39 | 6/6 | 0/18 | GFSLNSYGIS | VIYSDGRRTFYADHVK | GNAAGTFDS | GPLM_Gen
0.41 | 6/6 | 0/18 | GFTLDNYGIS | VIYSDGRRTFYGDSVK | GRTAGTFDS | GP_HC
0.43 | 6/6 | 1/18 | GPTLNEYGIS | VIYSDGRRTFYTDSVK | GRTAGTFDS | GP_HC
0.53 | 6/6 | 1/18 | GFTLNSYGIS | VIYSDGRRTFYSDSVK | GQAAGTFDT | GPLM_Gen
0.54 | 6/6 | 2/18 | GFTLNSYGIS | VIYSDGKRTFYGDDVK | GEAAGTFDT | GPLM_Gibbs
0.57 | 6/6 | 0/18 | GFDLNSYGIS | VIYSDGRRTFYGDSVK | GQTAGTFDK | GP_Gen
0.65 | 3/6 | 0/18 | GFLLNSYGIS | VIYSDGRRTFYADSVK | GKEAGTFDT | GP_Gibbs
0.68 | 3/6 | 0/18 | GFTLNSYGIS | VIYADGRRTFYGDSVK | GRVAGTFKS | GPLM_HC
0.87 | 6/6 | 0/18 | GFDLESYGIS | VIYADGSRTAYADSVK | GNTAGTFNV | En_HC
1.03 | 2/6 | 0/18 | GFHLNSYGVS | VIYSDGRRTFYGDSVK | GTAAGTFDS | Ctrl
1.09 | 5/6 | 1/18 | GFTLDSYGIS | VIYSDGRRTFYGDSVK | GRQAGTFDQ | GP_HC
1.10 | 5/6 | 0/18 | GFSLNEYGIS | VIYSDGRRTFYSDSVK | GEAAGTFDS | GPLM_Gen
1.18 | 6/6 | 0/18 | GSTLNEYGIS | VIYSDGRRTFYTDSVK | GRTAGTFDS | GP_HC
1.26 | 4/6 | 1/18 | GFWLNEYGIS | VIYSDGMRTFYGDSVK | GRTAGTFDS | GPLM_Gibbs
1.39 | 2/6 | 1/18 | GFTLNSYGIS | VIYSDGRRTFYVDSVK | GQTAGTFDK | GP_Gibbs
1.54 | 1/6 | 0/18 | GYTLNSYGIS | VIYSDGRRTFFGDSVV | GRAAGTFDS | Ctrl
1.66 | 6/6 | 0/18 | GFHLNSYGIS | VIYSDGRRTFYQDSVK | GRTAGTFDS | GP_Gen
2.06 | 2/6 | 0/18 | GFTLDSYGIS | VIYSDGRRTFYADSVK | GRGAGTFDS | Ctrl
2.14 | 1/6 | 0/18 | GFTLGSYGIS | VIYSDGRRTFYGDSVK | GRAAGTFDS | Ctrl
not detected | 0/6 | 0/18 | GFTLNSPGIS | VIYSDGRRTFYGDSVK | GRAAGTFDS | Ctrl
not detected | 0/6 | 0/18 | GFDIEEYGIS | VIYADGVRTMYADDVK | GINKTYSLT | En_Gibbs
not detected | 0/6 | 0/18 | GFTNNDYGIS | VIYSDGRRTFYGDSVK | GRAARTFIS | Rand
not detected | 0/6 | 0/18 | GQDINEFGIS | VIYADGIRNQYADSFK | GQNGFFFDI | En_Gibbs
not detected | 0/6 | 0/18 | GFNLEEYGIS | VIYADGMRSEYADNVK | GHKGNTFID | En_Gibbs
not detected | 0/6 | 0/18 | GFTINSYGYS | VIYSDGRRTFYHDSVK | GRAAGTFIS | Ctrl
not detected | 0/6 | 0/18 | GQALNSYGIS | VIYSDGERLFYLDAVK | ARAAGTFDS | Ctrl
not detected | 0/6 | 0/18 | GFTLNSYGIS | VIYSDGRRTAYGDSVK | GRAAVSFDS | Ctrl
not detected | 0/6 | 0/18 | GFTLNTYGIS | VIYSDGRRTFYIDSVK | GRPAGSFDS | Ctrl
not detected | 0/6 | 0/18 | GFSLNEYGIS | VIYADGTRTAYADSVK | GAYDTVAVL | En_Gibbs
not detected | 0/6 | 0/18 | GFDLDEEGIS | VIYADGSRTAYSKNVK | GGFDIKVIV | En_Gibbs
not detected | 0/6 | 0/18 | GMDLNSYGIS | VIYSDGRRAFYGDSVK | GRAAGWFNS | Rand
not detected | 0/6 | 0/18 | GFDLTEYGIS | VIYADGRRTEYSNDVK | GQVAGHFLD | En_Gibbs
not detected | 0/6 | 0/18 | GFTLNSYGIS | VIYSDGSRTFYGDSVR | GRAAQTFDS | Ctrl
not detected | 0/6 | 0/18 | GDSLNEYGIS | VIYADGFRAAYTDKVK | GVTGGNFSS | En_Gibbs
not detected | 0/6 | 0/18 | GQDINEYGIS | VIYADGIRSAYAQSVK | GYHGSQFDI | En_Gibbs
not detected | 0/6 | 0/18 | GFDLGEYGIS | VIYADGTRTAYVTKVK | GHIAGMFFT | En_Gibbs
not detected | 0/6 | 0/18 | GFTLNEYGIS | VIYSDCRRTFYTDAVK | GRFAGTFDS | Rand
not detected | 0/6 | 0/18 | WFTLNDYGIS | VIYSDGRRTFYIDSVK | GRAAGTFDS | GP_HC
not detected | 0/6 | 0/18 | GFQLDEFGIS | VIYADGKRSSYVDDVK | GETTGIFSV | En_Gibbs
not detected | 0/6 | 0/18 | GFTLDSYGIS | VIYSDGKRTFYGDSVK | GDAAGRFDS | Ctrl
not detected | 0/6 | 0/18 | GESLEEYGIS | VIYADGRRSAYADNVK | GMSGNFGMF | En_Gibbs
not detected | 0/6 | 0/18 | GFTLNQYGIS | VIYSDGRRTFYGDSVK | GRQAGTFDS | GP_HC
not detected | 0/6 | 0/18 | GFGINEYGIS | VIYADGMRRSYADSVK | GAHSGYMVV | En_Gibbs
not detected | 0/6 | 0/18 | YFQLNEYGIS | VIYSDGRRTFYGDSVK | GRNAGTFDS | GP_Gibbs
not detected | 0/6 | 0/18 | GFTLNSYGIS | VIYSDGRRTFYGDEVK | GHAAGTFDS | Ctrl
not detected | 0/6 | 0/18 | GQNLDEYGIS | VIYADGMRKWYADDVK | GNMSAGVIT | En_Gibbs

Again, the first 6 entries without any signal:

| CDR-H1 | CDR-H2 | CDR-H3 | group | mean, log10 nM | seen in | signal with controls |
|---|---|---|---|---|---|---|
| GFTLNSPGIS | VIYSDGRRTFYGDSVK | GRAAGTFDS | Ctrl | not detected | 0/6 | 0/18 |
| GFDIEEYGIS | VIYADGVRTMYADDVK | GINKTYSLT | En_Gibbs | not detected | 0/6 | 0/18 |
| GFTNNDYGIS | VIYSDGRRTFYGDSVK | GRAARTFIS | Rand | not detected | 0/6 | 0/18 |
| GQDINEFGIS | VIYADGIRNQYADSFK | GQNGFFFDI | En_Gibbs | not detected | 0/6 | 0/18 |
| GFNLEEYGIS | VIYADGMRSEYADNVK | GHKGNTFID | En_Gibbs | not detected | 0/6 | 0/18 |
| GFTINSYGYS | VIYSDGRRTFYHDSVK | GRAAGTFIS | Ctrl | not detected | 0/6 | 0/18 |

Reference: Li et al. 2023, doi:10.1038/s41467-023-39022-2. File: FLAb, binding data.